What was measured:
Assay in all cases: Isothermal titration calorimetry (ITC) of ligand binding at the FMNAT site
WT CaFADS = target: T1, WT CaFADS (Corynebacterium ammoniagenes, UniProt Q59263); settings: 20 mM PIPES, pH 7.0, no MgCl2
T1 construct: made in house; host or cells: Escherichia coli

P56W CaFADS = target: T2, P56W CaFADS (Corynebacterium ammoniagenes, UniProt Q59263, P56W)
T2 construct: made in house; host or cells: E. coli BL21(DE3)

P58W CaFADS = target: T3, P58W CaFADS (Corynebacterium ammoniagenes, UniProt Q59263, P58W)
T3 construct: made in house; host or cells: E. coli BL21(DE3)

P56A/P58A CaFADS = target: T4, P56A/P58A CaFADS (Corynebacterium ammoniagenes, UniProt Q59263, P56A/P58A)
T4 construct: made in house; host or cells: E. coli BL21(DE3)

L98K CaFADS = target: T5, L98K CaFADS (Corynebacterium ammoniagenes, UniProt Q59263, L98K)
T5 construct: made in house; host or cells: E. coli BL21(DE3)

L98W CaFADS = target: T6, L98W CaFADS (Corynebacterium ammoniagenes, UniProt Q59263, L98W)
T6 construct: made in house; host or cells: E. coli BL21(DE3)

Nc1ncnc2c1ncn2[C@@H]1O[C@H](COP(=O)(O)OP(=O)(O)OP(=O)(O)O)[C@@H](O)[C@H]1O [ATP, Adenosine 5′-triphosphate]
ΔG (WT CaFADS): -5.9 ± 0.1 kcal/mol | Kd (WT CaFADS; 25 °C): 48 ± 7 µM | Kd (P56W CaFADS): 44 ± 5 µM | ΔG (P56W CaFADS; P56W CaFADS, ITC, 20 mM PIPES, pH 7.0, no MgCl2): -5.9 ± 0.1 kcal/mol | Kd (P58W CaFADS): 16 ± 1 µM | Kd (P56A/P58A CaFADS): 21 ± 3 µM | Kd (L98K CaFADS): 82 ± 21 µM | Kd (L98W CaFADS): 47 ± 7 µM | ΔG (L98W CaFADS; L98W CaFADS, ITC, 20 mM PIPES, pH 7.0, no MgCl2): -5.9 ± 0.1 kcal/mol
